Tested on: Staphylococcus aureus
Experiment: Ratio of MBC to MIC for methicillin-sensitive Staphylococcus aureus 8325-4
Type: functional
How it was run: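 MBC/MIC ratio for MSSA 8325-4: MIC by CLSI broth microdilution (lowest concentration with ≥90% growth inhibition), MBC by a previously described method. Ratio 1–2 taken as bactericidal, ≥8 as bacteriostatic per CLSI; vancomycin and erythromycin run as bactericidal and bacteriostatic comparators.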

CC[C@H]1OC(=O)[C@H](C)[C@@H](O[C@H]2C[C@@](C)(OC)[C@@H](O)[C@H](C)O2)[C@H](C)[C@@H](O[C@@H]2O[C@H](C)C[C@H](N(C)C)[C@H]2O)[C@](C)(O)C[C@@H](C)C(=O)[C@H](C)[C@@H](O)[C@]1(C)O [ERYTHROMYCIN]
Ratio: 256

— ChEMBL document CHEMBL2413051, “Antibacterial activity of quinoxalines, quinazolines, and 1,5-naphthyridines” (2013)
